Results on 4 compounds are retold here after paper PMC5320532 (2017).

Data set [1] concerns P-gp. Kind of data set: Intracellular compound accumulation (Kp) and intracellular bioavailability (Fic). To be noted: dog, P-gp-transfected MDCK cells.
Experiment in data set [2]: as above
To be noted: human, mock-transfected HEK293 cells.

The subject of data set [3] is P-gp. The description is as above. To be noted: dog, P-gp-KO (CRISPR) MDCK cells.
Experiment in data set [4]: as above
To be noted: human, freshly isolated human hepatocytes in suspension.

Experiment in data set [5]: as above
To be noted: human, human hepatocytes cultured for 24 h in monolayer format.

In data set [6] the test system is P-gp. The description is as above. To be noted: dog, MDCK II wild-type cells.
The test system of data set [7] is mock-transfected HEK293 cells. The data set is described as above. To be noted: 0.1 μM, geometrical mean ± S.E.M.
Data set [8] concerns freshly isolated human hepatocytes in suspension. Described as above. To be noted: Suspension hepatocytes (freshly isolated human); geometrical mean ± S.E.M.
For data set [9], the system named is human hepatocytes cultured for 24 h in monolayer format. The description is as above. To be noted: Monolayer hepatocytes (human, 24 h culture); geometrical mean ± S.E.M.

The structures appear in SMILES notation.

For `CC(C)c1nc(CN(C)C(=O)N[C@H](C(=O)N[C@@H](Cc2ccccc2)C[C@H](O)[C@H](Cc2ccccc2)NC(=O)OCc2cncs2)C(C)C)cs1` [Ritonavir], the figures for the Kp at 45 min, 0.5 μM in the data set on P-gp [1] and in the data set with P-gp [3] were 69 ± 4 and 108 ± 35, respectively. In addition, the Kp at 45 min, 0.1 μM in data set [2] came to 77 ± 10. Besides, the Kp at 45 min was determined as 175 ± 54 in data set [4] and 85 ± 3 in the data set with P-gp [6]. Further, in data set [5], the Kp at 24 h is 616 ± 151.
As to `COCc1c(C(C)C)nc(C(C)C)c(/C=C/[C@@H](O)C[C@@H](O)CC(=O)O)c1-c1ccc(F)cc1` [Cerivastatin], the “intracellular accumulation (Kp)” value was 34±3 in data set [7], 230±44 in [8] and 789±22 in data set [9].
In the case of `O=C(O)C[C@H](O)C[C@H](O)/C=C/c1c(C2CC2)nc2ccccc2c1-c1ccc(F)cc1` [Pitavastatin], in data set [4], the Kp at 45 min was 60 ± 15. The Kp at 24 h in [5] came to 118 ± 10.
The matching figures for `CC(C)NCC(O)COc1cccc2ccccc12` (stereo not shown) [Propranolol]: 66 ± 16 and 1540 ± 87.
